The record followed here is BindingDB's records for doi:10.1021/acsmedchemlett.1c00450 (The Genomics Institute of The Novartis Research Foundation, 2021).

This experiment is described as follows: Inhibition of KIF5B-RET fusion protein (unknown origin) expressed in mouse BaF3 cells assessed as reduction in cell proliferation incubated for 48 hrs by cell proliferation assay.

Turning to `COC(=O)NC12CCC(n3cc(-c4ccc(Cl)c(N)c4)c4c(N)ncnc43)(CC1)CC2`, the IC50 was determined as 20 nM.
